Measured values published in PubChem BioAssay AID624038 (The Scripps Research Institute Molecular Screening Center, 2012).
The list shows a part of the results, in another mix than the full data. Some of these compounds have results that are not shown, active ones among them. Activity calls are given as the source filed them.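 Rule for the calls: active = activation above the run cutoff, the mean activation of all test compounds plus 3 SD (cut at about 18% in these data); inactive = the rest.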

Protein sequences, listed by entry. Tags and fused reporters are not part of them.
UniProt P08912, whole entry: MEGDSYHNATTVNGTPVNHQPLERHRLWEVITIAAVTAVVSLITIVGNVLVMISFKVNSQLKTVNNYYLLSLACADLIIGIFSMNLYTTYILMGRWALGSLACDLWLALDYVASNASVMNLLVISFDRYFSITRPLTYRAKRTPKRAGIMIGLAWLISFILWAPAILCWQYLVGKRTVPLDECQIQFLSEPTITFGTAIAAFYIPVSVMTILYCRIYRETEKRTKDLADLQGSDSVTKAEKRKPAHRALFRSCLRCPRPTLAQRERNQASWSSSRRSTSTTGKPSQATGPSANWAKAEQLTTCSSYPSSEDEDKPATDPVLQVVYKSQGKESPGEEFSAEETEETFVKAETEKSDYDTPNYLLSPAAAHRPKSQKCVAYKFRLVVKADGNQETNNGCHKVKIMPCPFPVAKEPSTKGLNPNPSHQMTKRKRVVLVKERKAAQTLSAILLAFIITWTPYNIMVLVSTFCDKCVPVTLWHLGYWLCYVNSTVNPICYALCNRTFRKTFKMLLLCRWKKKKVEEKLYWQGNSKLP

Biological target: Muscarinic acetylcholine receptor M5 (Homo sapiens) (UniProt P08912)
Test: CHRM5 PAMs potentiating acetylcholine calcium signal – CHO-K1 cells, Fluo-8 calcium fluorescence, primary screen (AID 624038)
Conditions: CHO-K1 hM5, Fluo-8 calcium, ACh EC20 PAM; at 3 µM; active compounds read high; 0% = ACh EC20, 100% = ACh EC100

| SMILES | activation |
| --- | --- |
| COc1cccc(C(=O)NCC2(N3CCCCC3)CCCCC2)c1 | inactive: 13.1% |
| COc1ccc(Cl)cc1C(=O)NCC1(N(C)C)CCCCC1 | inactive: -4.07% |
| O=C(NCC1(N2CCCCC2)CCCCC1)c1cccc(Cl)c1 | inactive: 8.88% |
| CN(C)C1(CNC(=O)c2ccc(Br)cc2)CCCCC1 | inactive: 2.67% |
| COc1cc(C(=O)NCC2(N(C)C)CCCCC2)c([N+](=O)[O-])cc1OC | inactive: 5.39% |
| COc1ccc(Br)c(C(=O)NCC2(N3CCCCC3)CCCCC2)c1 | inactive: 11.1% |
| C=C(C)C#CC(O)(C(=O)OC1CCN(C)CC1)c1ccccc1 (stereo not drawn) | inactive: -34.2% |
| CN(C)c1cccc(C(=O)NCC2(N(C)C)CCCCC2)c1 | inactive: 0.34% |
| CC(C)Oc1ccc(C(=O)NCC2(N(C)C)CCCCC2)cc1 | inactive: -1.96% |
| O=C(OCCN1CCCC1)C(O)(c1ccccc1)c1ccccc1 | inactive: -34.9% |
| O=C(OC1CN2CCC1CC2)C(CO)(c1ccccc1)c1ccccc1 (stereo not drawn) | inactive: -22.4% |
| CC(C)N1C(=O)CC2(CCN(CCOC(=O)C(O)(c3ccccc3)c3ccccc3)CC2)C1=O | inactive: 3.02% |
| CCN(CC)CC(C)C(C)OC(=O)C(O)(c1ccccc1)c1ccccc1 (stereo not drawn) | inactive: -30.9% |
| COc1cc(SC)ccc1C(=O)NCC1(N(C)C)CCCCC1 | inactive: 0.38% |
| Cc1ccc(C(=O)NCC2(N3CCCCC3)CCCCC2)cc1 | inactive: 3.97% |
| O=C(NCC1(N2CCCCC2)CCCCC1)c1cc([N+](=O)[O-])ccc1Cl | inactive: 0.25% |
| C=CCN1CCN(CCOC(=O)C(O)(c2ccccc2)c2ccccc2)CC1 | inactive: -17.1% |
| O=C(NCC1(N2CCCCC2)CCCCC1)c1cc(F)c(F)cc1Cl | inactive: 0.9% |
| Cc1cc(C(=O)NCC2(N3CCCCC3)CCCCC2)ccc1[N+](=O)[O-] | inactive: 2.28% |
| O=C(NCC1(N2CCCCC2)CCCCC1)c1cccc(Br)c1 | inactive: 0.81% |
| COc1ccc(C(=O)NCC2(N(C)C)CCCCC2)cc1 | inactive: 2.69% |
| Cc1ccccc1C(=O)NCC1(N2CCCCC2)CCCCC1 | inactive: -2.56% |
| CN(C)c1ccc(C(=O)NCC2(N(C)C)CCCCC2)cc1 | inactive: 2.02% |
